In publication PMC4055232 (Malaria Journal, 2014):

Tests used:
[1] = Pharmacokinetics of probe drug cocktail (bupropion, midazolam) and their metabolites before and after QHS-PQ; format: in vivo, human; conditions: for AUC 0-t /dose: mean ± sd
Protocol: The chromatography was performed at 22°C. The mobile phase consisted of B (acetonitrile) and A (0.1% formic acid in water), which increased linearly from 20% B to 90% B during 7 min before column re-equilibration at a flow rate of 0.3 mL/min.
Plasma samples were subjected to a protein precipitation extraction process. A 100 μL aliquot of human plasma was mixed with 25 μL of acetonitrile and 200 μL of IS (1 μM of alprazolam, prepared in acetonitrile). The mixture was mixed and centrifuged at 3,000 g for 10 min. Aliquots (20 μL) of the solution were injected onto LC-MS analysis. […] This mixture was treated as above. […] Plasma samples were diluted with blank plasma and reanalysed when the concentration of any analyte was higher than the upper limit of quantification.
Venous blood samples (2 mL) for analysis of probe drugs and their metabolites were taken from an indwelling intravenous catheter at 0, 0.25, 0.75, 1.5, 2.0, 3.0, 4.0, 5.0, 7.0, 11.0, 24.0, 36.0, and 48.0 hours.
The peak plasma concentration (Cmax) and time-to-peak concentration (Tmax) were obtained from experimental observations. The other pharmacokinetic parameters were analysed by non-compartmental model using the program TOPFIT (version 2.0; Thomae GmbH, Germany). The area under the plasma concentration-time curve (AUC o-t ) was calculated using the linear trapezoidal rule to approximately the last point. The mean residence time (MRT) was obtained by dividing the area under the first moment-time curve (AUMC 0-t ) by the area under the curve (AUC 0-t ). Total oral body clearance (CL/F) was calculated as dose/AUC 0-t .
Results were expressed as mean ± SD. The two-tailed t-test was used for paired comparison of the pharmacokinetic parameters between the single dose and multiple doses after logarithmic transformation. Geometric mean ratios with 90% confidence intervals (CIs) were calculated after log transformation of within-subject data. The comparison of Tmax for the different treatment groups was performed using the Wilcoxon signed-rank test. The acceptable level of significance was established at P < 0.05 or P < 0.01.

CYP3A4 = conditions: healthy Chinese and Caucasian volunteers; cited from earlier work
[2] = 2-day (after QHS-PQ) versus 1-day (day -14)

For Cc1ncc2n1-c1ccc(Cl)cc1C(c1ccccc1F)=NC2 [MDZ, midazolam], the “Geometric mean ratio (90% CI) of AUC 0-t /dose” value [1, 2] was 1.55 (1.35, 1.78)**, the “Geometric mean ratio (90% CI) of C max” value [1, 2] was 1.48 (1.12, 1.97)* and the “Geometric mean ratio (90% CI) of CL/F” value [1, 2] was 0.64 (0.55, 0.73)**. For the same compound, the “Geometric mean ratio (90% CI) of MRT” value [1, 2] was 1.04 (0.96, 1.14), the “increase of AUC/dose after QHS-PQ” value ([1]; after two days of QHS-PQ versus day -14) was 1.6 ± 0.5 fold and the “AUC 0-t /dose” value ([1]; listed as '1-day': oral probe cocktail (bupropion 75 mg, midazolam 15 mg) on day -14, before QHS-PQ) was 1.0 ± 0.3 h·kg·L^-1 and 1.00 ± 0.33** h·kg·L^-1. For the same compound, the “AUC 0-t /dose” value ([1]; listed as '2-day': probe cocktail 1 hour after second oral dose of QHS-PQ (day 2)) was 1.55 ± 0.42** h·kg·L^-1 and the “AUC ratio of OH-MDZ to MDZ, reported data” value (CYP3A4) was 0.22-0.30.

Values joined by “and” are separate entries in the source; they are usually repeats but may differ in a detail not shown here. Identical values can stand only once. Marks after values point to notes of the source that are not given here.
